Drawing on US20220072036A1, “METHOD FOR INHIBITING CORONAVIRUS AND METHOD FOR TREATING DISEASE ASSOCIATED WITH CORONAVIRUS INFECTION” (AMAZING FORTUNE CO., LTD., priority 2020, published 2022), this text covers Inhibition percentage for one compound.

This test deals with SARS-CoV-2 papain-like protease (PLPro) (Severe acute respiratory syndrome coronavirus 2, UniProt P0DTD1). The format is biochemical.

`CC1=C(/C=C/C(C)=C/C=C/C(C)=C\C(=O)O)C(C)(C)CCC1` [Comparative Group 1, 13-cis-retinoic acid] yielded an Inhibition percentage of 20.63 ± 1.27%.
